This is an account of results in patent publication US9656988B2 (Pharmacyclics LLC, priority 2013, dated 2017).

Protein sequences, listed by entry. Tags and fused reporters are not part of them. Lines headed by an entry give the natural chain unless they say otherwise; changes in a name come on top.
UniProt Q06187: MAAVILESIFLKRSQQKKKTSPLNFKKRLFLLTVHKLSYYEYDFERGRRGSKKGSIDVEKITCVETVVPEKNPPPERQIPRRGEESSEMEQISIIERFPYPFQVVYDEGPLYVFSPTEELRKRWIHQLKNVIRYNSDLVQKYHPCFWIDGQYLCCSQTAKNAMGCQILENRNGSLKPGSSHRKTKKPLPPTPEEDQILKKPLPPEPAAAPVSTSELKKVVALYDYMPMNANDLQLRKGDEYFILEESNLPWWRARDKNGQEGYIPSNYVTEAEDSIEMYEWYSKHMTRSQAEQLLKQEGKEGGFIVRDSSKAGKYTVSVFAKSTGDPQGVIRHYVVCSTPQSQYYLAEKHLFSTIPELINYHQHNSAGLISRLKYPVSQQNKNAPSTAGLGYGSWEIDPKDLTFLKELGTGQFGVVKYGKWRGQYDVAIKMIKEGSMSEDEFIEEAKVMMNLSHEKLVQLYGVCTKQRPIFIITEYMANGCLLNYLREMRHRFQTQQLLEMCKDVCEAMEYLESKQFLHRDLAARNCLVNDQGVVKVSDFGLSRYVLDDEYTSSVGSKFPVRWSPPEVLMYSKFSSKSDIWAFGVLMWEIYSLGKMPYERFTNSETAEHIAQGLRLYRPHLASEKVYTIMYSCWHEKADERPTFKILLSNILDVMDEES

Read-outs that look alike come from different tables or passages of the source. Where only a bound is given, the exact number is not on record here.

This assay addresses BTK (Homo sapiens (Human), UniProt Q06187). Nature of the assay: Btk in vitro inhibitory activity (one of Method A TR-FRET, Method B electrophoretic mobility shift, Method C radiometric filter binding). Format: biochemical.
Where [1] appears, read: determined using one of the methods of Example 355a, 355b and 355c.

As for `CN(C)C(=O)N[C@@H]1CCCN(c2cnc(C(N)=O)c(Nc3ccc(C4CCN(C5CC5)CC4)cc3)n2)C1` [Example 206, (R)-3-(4-(1-cyclopropylpiperidin-4-yl)phenylamino)-5-(3-(3,3-dimethylureido)piperidin-1-yl)pyrazine-2-carboxamide], the IC50 was < 10 nM. Also, the IC50 under setting [1] was < 10 nM.
With `COc1ccc(Nc2nc(N3CCC[C@@H](NC(=O)c4ccc(OC)cc4)C3)cnc2C(N)=O)cc1` [Example 110], under setting [1], the IC50 was in the range of 10 to 100 nM.
